This test in a line: Selectivity ratio of IC50 for inhibition of PARP2 (unknown origin) in PARP1 knockout human A549 cells to IC50 for inhibition of PARP1 (unknown origin) in PARP2 knockout human A549 cells.

This passage reports Ratio IC50 results from ChEMBL document CHEMBL6096703 (J Med Chem, 2025).

With `CCc1cc2ncc(CN3CC=C(c4ccc(C#N)cn4)CC3)cc2[nH]c1=O`, the Ratio IC50 is 5000.
